The values that follow come from PubChem BioAssay AID445 (National Center for Advancing Translational Sciences (NCATS), 2006).

This is one part of the list. Some tests of the compounds listed are not included; inactive here does not mean inactive elsewhere. Records with an inconclusive call do not appear. Activity calls are given as the source filed them. Calls come from the whole dose curve; as a rule, active = well fitted curve in the direction sought with a large enough effect in the signal ratio (not every such curve was filed as active); inconclusive = small, poorly fitted or top-dose-only effect, or a change in a side signal; inactive = flat fitted curve, though single readings scatter; the % refers to the signal ratio.

This test can be described thus: IkB Signaling.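 Note: 0% = basal untreated cells and 100% = reference inhibitor full response.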 Conditions: ABC-DLBCL IkBa-CBG/CBR dual luciferase ratio (green luciferase fused to IkBa over red control in OCI-Ly3 lymphoma cells), 4 h, scaled: untreated 0%, proteasome inhibitor 100%; at 57.1 µM (top of the series) unless noted. The source says: NIH Molecular Libraries Screening Centers Network [MLSCN]
NIH Chemical Genomics Center [NCGC]
Nuclear factor kappa-B (NF-kappa-B) plays an important role in normal B cell development and survival. Diffuse large B cell lymphoma (DLBCL) is the most commonly observed type of non-Hodgkin's lymphoma. Gene expression analysis has identified an activated B cell-like subtype of DLBCL (ABC-DLBCL) which expresses known NF-kappa-B target genes. […] However, targets upstream of IKK have been largely unexplored and so nodes upstream of IKK in the NF-kappa-B pathway remain untested due to the lack of chemical probes.
A cell-sensor assay for I-kappa-B-alpha stabilization was developed with NIH investigator Dr. R. Eric Davis in Dr. Louis M. Staudt's laboratory. The assay uses green (CBG68) and red (CBR) emitting beetle luciferases [Chroma-Glo(TM) developed by Promega Corp.] where the green luciferase is fused to I-kappa-B-alpha and the red luciferase is present in its native state. Both luciferase genes are stably present in the OCI-Ly3 human ABC DLBCL cell line, but their expression is under the control of tetracycline-inducible promoters. Following the addition of doxycycline to induce expression of the luciferases, the green luminescence in control cultures rises only slowly because the CBG fusion partner I-kappa-B-alpha is targeted by IKK activity for rapid degradation. In contrast, green luminescence rises rapidly in the presence of proteasome inhibitors or IKK inhibitors. The rise in red luminescence of CBR is not affected by proteasome or IKK inhibitors, and serves as normalization for cell number and nonspecific effects. Compounds were screened as a concentration-titration series that ranged from 57 uM to 0.7 nM.
NCGC Assay Protocol Summary:
Cells were seeded in 1536-well plates at 5000 cells/3ul in IMDM medium containing 0.5% FBS, w/o phenol red, L-glutamine, 25 mM HEPES, 3 mg/ml sodium bicarbonate. After centrifugation for 1 min. at 1000 rpm, 23 nl of compounds or DMSO were delivered to each well using a pin tool. Then 1ul 80ng/ml doxycycline was dispensed into white solid 1536-well plates and the plates were incubated at 37C/5% C02 in a cell incubator for 4 hrs. Then 4 ul Chroma-Glo luminescent substrate mix (Promega) was added to each well. The plate was incubated at R.T. for 10-15 min. The plates were measured on a ViewLux plate reader for green luminescence (540/20 nm filter) and red luminescence (618/8 nm filter). The green and red luminescent signals were corrected for red and green luminescence filter overlap using previously determined filter calibration constants (determined using the procedure outlined in the Promega Technical Manual). The %Activity was determined from the ratio of corrected green/red luminescent values. Green luminescent and ratio %Activity was determined by normalizing to the difference in signal between basal cells (0% Activity) and cells incubated with 10 uM of the proteasome inhibitor MG-132 (100% Activity). Red luminescent %Activity was normalized to the difference between red luminesence in basal cells (0%Activity) and zero luminescence (-100% Activity).
Concentration-response curves were fitted to the signals arising from the green luminescence (I-kappa-B-alpha-luciferase fusion; IkB-luc) and the red luminescence (unfused luciferase; luc) as well as the calculated ratio. The concentration-effect curves were then classified based on curve quality (r2), response magnitude and degree of measured activity. Compounds were then categorized based on their concentration-response curves for all three datasets (Ikb-luc, luc and ratio).
Keywords: IKK, I-kappa-B, IkB, IkBa, cytotoxicity, luminescence, MLSMR, MLSCN, NIH Roadmap, qHTS, NCGC
Regarding `CCCCOc1ccccc1C(=O)NCC1(N(C)C)CCCCC1`, the IkBa stabilization activation was inactive: 0.842%.
To `CN(C)C1(CNC(=O)c2ccccc2[N+](=O)[O-])CCCCC1` belongs inactive: 1.18%.
The figure for `CCOc1cccc(C(=O)NCC2(N(C)C)CCCCC2)c1` is inactive: 0.121%.
Turning to `CN(C)C1(CNC(=O)c2ccccc2F)CCCCC1`, the IkBa stabilization activation is inactive: -1.26%.
The figure for `CN(C)C1(CNC(=O)c2cccc(Cl)c2)CCCCC1` is inactive: -0.753%; for `C=C(C)C#C[C@@](O)(C(=O)OC1CCN(C)CC1)c1ccccc1` it is inactive: 0.685% [at 11.4 µM]; for `COc1cccc(C(=O)NCC2(N3CCOCC3)CCCCC2)c1` it is inactive: -0.567%.
To `CN1CCC[C@H](OC(=O)[C@](O)(c2ccccc2)C2CCCC2)C1` belongs inactive: 0.9% [at 11.4 µM]; to `CN1CC[C@H](OC(=O)[C@](O)(c2ccccc2)C2CCCC2)C1`, inactive: 0.736% [at 11.4 µM]; to `O=C(OC1CN2CCC1CC2)C(CO)(c1ccccc1)c1ccccc1` (stereo not given), inactive: -0.119%.
Turning to `CC(C)Oc1ccc(C(=O)NCC2(N(C)C)CCCCC2)cc1`, the IkBa stabilization activation is inactive: -0.503%.
To `CN(C)c1cccc(C(=O)NCC2(N(C)C)CCCCC2)c1` belongs inactive: 0.402%.
The figure for `Cc1cccc(C(=O)NCC2(N(C)C)CCCCC2)c1` is inactive: -2.06%.
To `COc1cc(C(=O)NCC2(N(C)C)CCCCC2)cc(OC)c1OC` belongs inactive: 0.966%.
As for `COc1ccc(C(=O)NCC2(N(C)C)CCCCC2)cc1Cl`, the IkBa stabilization activation is inactive: 0.999%.
